From US4029731A, “Aminophenyltetralin compounds” (Pfizer Inc., priority 1976, dated 1977)
Where a name gives a salt, the structure may show the parent alone.

Tested on: norepinephrine uptake into both rat heart and rat brain; reserpine hypothermia in mice
Assay: Antidepressant activity (norepinephrine uptake into rat heart and rat brain in vivo; reversal of reserpine hypothermia in mice)
Conditions: for degree of antidepressant activity: base and hydrochloride acid addition salts
Procedure: The activity of the compounds of the present invention as antidepressants is determined by a study of their ability to supress norepinephrine uptake into both rat heart and rat brain (in vivo), together with a determination of their ability to bring about a reversal of reserpine hypothermia in mice.

Compound | degree of antidepressant activity | drug potency as antidepressant compared with imipramine and desmethylimipramine (norepinephrine uptake into rat heart and rat brain in vivo, reserpine hypothermia in mice)
CN[C@@H]1CC[C@@H](c2ccccc2)c2ccccc21 (relative stereo) [trans-dl-N-methyl-4-phenyl-1,2,3,4-tetrahydro-1-naphthylamine] | markedly high degree of antidepressant activity | 
CN[C@@H]1CC[C@@H](c2ccccc2)c2ccccc21 [Trans-d-isomer of Example III, trans-d-N-methyl-4-phenyl-1,2,3,4-tetrahydro-1-naphthylamine as the hydrochloride] |  | roughly equivalent to both impramine and desmethylimpramine
CN[C@@H]1CC[C@@H](c2ccccc2)c2ccccc21 [trans-d-N-methyl-4-phenyl-1,2,3,4-tetrahydro-1-naphthylamine] | markedly high degree of antidepressant activity | 
